The source of these data is ChEMBL document CHEMBL4190333, “Cyclic Biphalin Analogues Incorporating a Xylene Bridge: Synthesis, Characterization, and Biological Profile” (ACS Med Chem Lett, 2017).

The species entered for the experiment is Rattus norvegicus. The experiment is described as follows: Selectivity ratio of Ki for displacement of [3H]lleDelt2 from DOR in Wistar rat whole brain membranes to displacement of [3H]DAMGO from MOR in Wistar rat whole brain membranes. It counts as cell membranes.

Structures are written as SMILES.

For `C[C@@H](NC(=O)[C@@H](N)Cc1ccc(O)cc1)C(=O)NCC(=O)N[C@@H](Cc1ccccc1)C(=O)NNC(=O)[C@H](Cc1ccccc1)NC(=O)CNC(=O)[C@@H](C)NC(=O)[C@@H](N)Cc1ccc(O)cc1` [BIPHALIN], the Ratio Ki came out at 4.4.
